Literature values in US20050009903A1, “CB2-selective cannabinoid analogues” (priority 2003, published 2005).

Chains of the proteins cited; added tags and fusions are not shown.
UniProt P34972, whole entry: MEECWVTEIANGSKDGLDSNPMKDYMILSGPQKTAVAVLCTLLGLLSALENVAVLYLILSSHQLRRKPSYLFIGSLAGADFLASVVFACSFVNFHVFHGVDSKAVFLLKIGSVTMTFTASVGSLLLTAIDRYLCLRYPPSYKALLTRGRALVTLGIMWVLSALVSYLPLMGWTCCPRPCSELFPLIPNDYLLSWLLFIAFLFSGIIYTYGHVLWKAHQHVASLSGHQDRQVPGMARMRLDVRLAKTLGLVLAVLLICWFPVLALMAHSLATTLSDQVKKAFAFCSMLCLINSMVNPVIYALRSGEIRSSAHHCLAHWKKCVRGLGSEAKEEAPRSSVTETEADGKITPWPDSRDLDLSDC

Target: CB2 receptor (Homo sapiens, UniProt P34972)
Conditions: read-out: Ki CB2 receptor; Hanus et al.; cited from earlier work

SMILES: CCCCCCC(C)(C)c1cc(OC)c([C@@H]2C=C(CO)[C@@H]3C[C@H]2C3(C)C)c(OC)c1 [HU-308]
- Ki: 0.0227 ± 0.0039 µM
